Laboratory results from patent US20250197387A1, “BCL-XL DEGRADERS AND USES THEREOF” (Kymera Therapeutics, Inc., priority 2021, published 2025).

Sequences of proteins named here, by UniProt entry; tags and fusion partners are left off.
UniProt Q07817, whole entry: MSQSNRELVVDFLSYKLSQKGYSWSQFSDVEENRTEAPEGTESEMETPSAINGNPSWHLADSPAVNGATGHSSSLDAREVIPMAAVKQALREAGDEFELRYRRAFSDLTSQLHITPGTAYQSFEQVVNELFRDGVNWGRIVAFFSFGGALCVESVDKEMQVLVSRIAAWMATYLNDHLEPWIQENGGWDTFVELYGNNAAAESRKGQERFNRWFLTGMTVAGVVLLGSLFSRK

Assays:
[1] = biological target: T1, BCL-XL (Homo sapiens, UniProt Q07817); experiment: BCL-XL degradation assay, western blot in MOLT-4 cells, 16 h
Description: Compounds treatment: compounds were reconstituted in DMSO to make a stock concentration of 10 mM. MOLT-4 cells were maintained in RPMI-1640+10% FBS+1% Penicillin-Streptomycin. Cells were seeded into 6-well plates in 2 mL at the seeding density of 2e6 cells/mL. Compounds were added to the cells to a final concentration ranging 0.02-10 μM. After 16 hr incubation at 37° C., in a CO2 incubator, cells were collected in an Eppendorf tube and centrifuged at 200×g for 5 minutes, the supernatant removed and pellets washed with ice-cold PBS, centrifuged and supernatant removed again. Then. 50 μl of pre-chilled RIPA lysis buffer (Boston BioProducts. BP-115D) with protease and phosphatase inhibitors (Roche Applied Science. #04906837001 and #04693116001) was added into cell pellet to lyze the cells for 20 minutes under 4° C. Cell lysates were spin at 13000 rpm for 10 minutes. Supernatants were collected and protein concentration was measured by BCA assay kit (Solarbio. PC0020-500) following the manufacturer's protocol. Samples' final protein concentration was adjusted to 3.75 μg/uL with the RIPA lysis buffer based on BCA assay results and 4× loading buffer (Invitrogen. NP0007) was added into the samples and samples were heated to 85° C., for 10 min and then let cool at RT. […] The western blot images were obtained using Odyssey Imaging System and quantified using Image Studio Lite Ver 5.2 software. […]

[2] = biological target: T1, BCL-XL; experiment: Bcl-xL ELISA degradation in MOLT-4 cells, 6 h; details: for DC50: read-out: Bcl-xL ELISA in MOLT-4 degradation 6 h: Mean external-Abs DC50
Description: The letter codes for BCL-XL DC50 include: A (<0.01 μM); B (0.01-0.1 μM); C (>[…]); D (>0.5-1.0 μM); and E (>1.0 μM). The letter codes for Dmax % include A (>75%); B (50 to 75%); C (<50%).

[3] = system: Caki-2 cells; experiment: CTG (CellTiter-Glo) cell viability assay, Caki-2; details: read-out: CTG Chempartner - Caki-2 3 day: Average external-IC50, 3 day incubation
Description: (§1) Compound-mediated viability effect on MOLT-4 and Caki-2 was quantitatively determined using the CellTiter-Glo® Luminescent Cell Viability Assay kit from Promega (Catalog number G7570) following manufacturer's recommended procedures. Briefly, MOLT-4 and Caki-2 cells were seeded into 384 well plates (Grenier Bio-One, Catalog number 781080) with a density of 10,000 cells per well. Compounds were then added to the assay plate with final top concentration of 10 μM and 1:3 dilution series with total of 9 doses. The final DMSO concentration is normalized to 0.2%. The assay plates were incubated at 37° C., for 3 days under 5% CO2. Then the assay plate was equilibrated at room temperature for 10 minutes. To determine cell viability, 30 uL CellTiter Glo reagent was added to each well and the assay plate was centrifuged at 1000 rpm for 30 second, incubated at room temperature for 10 min, and analyzed by detecting the luminescence using a multimode plate reader (EnVision 2105, PerkinElmer). The data was then analyzed by software Prism 7.0 from GraphPad and the dose response curves are fit using a three-parameter logistic equation to calculate IC50.
(§2) The letter codes for MOLT-4 IC50 include: A (<0.1 μM); B (0.1-1.0 μM); C (>1.0-3.0 μM); and D (>3.0 μM). The letter codes for Caki-2 IC50 include: A (<0.1 μM); B (0.1-1.0 μM); C (>1.0-10.0 μM); and D (>10.0 μM).

[4] = system: MOLT-4 cells; experiment: CTG (CellTiter-Glo) cell viability assay, MOLT-4; details: read-out: CTG Cell Viability Assay - MOLT-4 3 day: Average external-IC50, 3 day incubation
Description: as §1, §2

Question: `Cc1ncsc1-c1ccc([C@H](C)NC(=O)[C@@H]2C[C@@H](O)CN2C(=O)[C@@H](NC(=O)CCCN(C)C(=O)CCCCCCCC#Cc2ccc(N3CCc4cccc(C(=O)Nc5nc6ccccc6s5)c4C3)nc2C(=O)O)C(C)(C)C)cc1` was tested. Which “Bcl-xL WB in MOLT-4 degradation 16 h: Average Dmax %” value [1] did it give?
Answer: C (C (<50%))

Question: And the DC50 ([1]; read-out: Bcl-xL WB in MOLT-4 degradation 16 h: Mean external-Abs DC50)?
Answer: > 1000 nM

Question: `COc1nn(C)c2ccc(C(C)NC(=O)[C@@H]3C[C@@H](O)CN3C(=O)[C@@H](NC(=O)CCCCCS(=O)(=O)NC(=O)c3nc(N(C)c4cc(C)c(Nc5nc6ccccc6s5)nn4)ccc3-c3cnn(CC45CC6CC(CC(C6)C4)C5)c3C)C(C)(C)C)cc12` (stereo partly shown) was tested. Which “Bcl-xL ELISA in MOLT-4 degradation 6 h: Average Dmax %” value [2] did it give?
Answer: A (A (>75%))

Question: What about the DC50 [2] of the same compound?
Answer: < 10 nM

Question: And the IC50 [3]?
Answer: > 10000 nM

Question: What about the IC50 [4] of the same compound?
Answer: < 100 nM

Question: What does the source list for `Cc1ncsc1-c1ccc([C@H](C)NC(=O)[C@@H]2C[C@@H](O)CN2C(=O)[C@@H](NC(=O)C2CCN(c3ccc(S(=O)(=O)NC(=O)c4nc(N5CCc6cccc(C(=O)Nc7nc8ccccc8s7)c6C5)ccc4-c4cnn(CC(C)(C)C)c4C)cc3)CC2)C(C)(C)C)cc1`?
Answer: Bcl-xL ELISA in MOLT-4 degradation 6 h: Average Dmax % [2]: A (A (>75%)); DC50 [2]: 10 to 100 nM; IC50 [3]: > 10000 nM; IC50 [4]: < 100 nM
